Our source for the IC50 values is US20260207704A1, “STAPLED PEPTIDES AND METHODS THEREOF” (priority 2022, published 2026).

By UniProt entry, the sequences of proteins in these tests, tags left out.
UniProt P35222, whole entry: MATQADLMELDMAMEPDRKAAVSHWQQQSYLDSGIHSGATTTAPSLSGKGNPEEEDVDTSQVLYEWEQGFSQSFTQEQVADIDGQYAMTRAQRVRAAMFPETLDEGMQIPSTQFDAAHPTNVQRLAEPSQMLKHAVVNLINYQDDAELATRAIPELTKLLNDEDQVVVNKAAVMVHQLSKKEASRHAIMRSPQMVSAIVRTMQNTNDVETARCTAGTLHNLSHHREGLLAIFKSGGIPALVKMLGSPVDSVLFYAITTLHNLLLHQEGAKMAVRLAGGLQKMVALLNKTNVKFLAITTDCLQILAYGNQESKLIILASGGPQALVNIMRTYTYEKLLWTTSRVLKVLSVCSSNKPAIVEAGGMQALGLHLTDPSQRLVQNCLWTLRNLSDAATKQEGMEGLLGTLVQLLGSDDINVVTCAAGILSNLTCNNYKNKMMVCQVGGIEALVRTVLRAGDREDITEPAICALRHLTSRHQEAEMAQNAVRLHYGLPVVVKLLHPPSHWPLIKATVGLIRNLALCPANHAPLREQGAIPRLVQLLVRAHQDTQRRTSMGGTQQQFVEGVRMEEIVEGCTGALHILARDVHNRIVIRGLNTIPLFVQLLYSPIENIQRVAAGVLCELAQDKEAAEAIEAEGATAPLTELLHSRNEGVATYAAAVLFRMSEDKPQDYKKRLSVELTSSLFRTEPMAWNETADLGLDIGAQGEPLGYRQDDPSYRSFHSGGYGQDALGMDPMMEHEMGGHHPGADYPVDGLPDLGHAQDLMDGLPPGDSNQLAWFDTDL

One assay addresses T1, beta-catenin/TCF4 (Homo sapiens, UniProt P35222).
T1 construct: expressed in transfected cells; host or cells: HEK293 cells
As to the kind of experiment: Nano-BRET target engagement assay (HEK293 cells). It counts as cell-based.

For another assay, the target named is beta-catenin (Homo sapiens, UniProt P35222). As to the kind of experiment: fluorescence polarization binding to beta-catenin. The conditions noted are these: beta-Catenin FP IC50 (nM). On the technique in general: In fluorescence polarisation assays a small probe gives low polarisation when free and higher when bound to something large.

Molecules are shown by their SMILES. pIC50: −log10 of the molar value. Some results are limits rather than exact numbers.

At beta-catenin/TCF4, `CCNC(=O)[C@H](CO)NC(=O)[C@H](C)NC(=O)[C@@H]1CCC(=O)NCCCC[C@@H]2NC(=O)[C@H](Cc3ccccc3)NC(=O)[C@H](C)NC(=O)C(C)(C)NC(=O)[C@H](Cc3cccc(C(=O)O)c3)NC(=O)[C@H](CC(=O)O)NC(=O)C3(CCCC=CCCCOC(=O)N4CC[C@@](C4)(NC2=O)C(=O)N[C@@H](Cc2ccccc2C(F)(F)F)C(=O)N[C@@H](Cc2csc4ccccc24)C(=O)N1)CCCC=CC[C@]1(CCCN1C(C)=O)C(=O)N[C@@H](CC(=O)O)C(=O)N[C@@H](CC(C)(C)C)C(=O)N3` (relative stereo) [I-227, Ac-PL3-Asp-Npg-B5-Asp-3COOHF-Aib-Ala-Phe-Lys*3-PyrS2-2F3MeF-BztA-GlnR*3-Ala-Ser-NHEt] had a pIC50 of 5.52 to 5.82. This compound yielded an IC50 on beta-catenin of less than 50 nM.
On the same counts, the results for `CCNC(=O)[C@H](CCCN1CCOCC1)NC(=O)[C@@H]1CCC(=O)NCCCC[C@@H]2NC(=O)[C@H](Cc3ccccc3)NC(=O)[C@H](C)NC(=O)C(C)(C)NC(=O)[C@H](Cc3cccc(C(=O)O)c3)NC(=O)[C@H](CC(=O)O)NC(=O)C3(CCCC=CCCCOC(=O)N4CC[C@@](C4)(NC2=O)C(=O)N[C@@H](Cc2ccccc2C(F)(F)F)C(=O)N[C@@H](Cc2csc4ccccc24)C(=O)N1)CCCC=CC[C@]1(CCCN1C(C)=O)C(=O)N[C@@H](CC(=O)O)C(=O)N[C@@H](CC(C)(C)C)C(=O)N3` (relative stereo) [I-228, Ac-PL3-Asp-Npg-B5-Asp-3COOHF-Aib-Ala-Phe-Lys*3-PyrS2-2F3MeF-BztA-GlnR*3-MorphNva-NHEt] are 5.00 to 5.52 and less than 50 nM.
`CCNC(=O)[C@H](CO)NC(=O)[C@H](CCCN1CCOCC1)NC(=O)[C@@H]1CCC(=O)NCCCC[C@@H]2NC(=O)[C@H](Cc3ccccc3)NC(=O)[C@H](C)NC(=O)C(C)(C)NC(=O)[C@H](Cc3cccc(C(=O)O)c3)NC(=O)[C@H](CC(=O)O)NC(=O)C3(CCCC=CCCCOC(=O)N4CC[C@@](C4)(NC2=O)C(=O)N[C@@H](Cc2ccccc2C(F)(F)F)C(=O)N[C@@H](Cc2csc4ccccc24)C(=O)N1)CCCC=CC[C@]1(CCCN1C(C)=O)C(=O)N[C@@H](CC(=O)O)C(=O)N[C@@H](CC(C)(C)C)C(=O)N3` (relative stereo) [I-229, Ac-PL3-Asp-Npg-B5-Asp-3COOHF-Aib-Ala-Phe-Lys*3-PyrS2-2F3MeF-BztA-GlnR*3-MorphNva-Ser-NHEt] showed a pIC50 against beta-catenin/TCF4 of less than 5.00. Further, the IC50 at beta-catenin is less than 50 nM.
For `CC(=O)N1CCC[C@]12CC=CCCCC1(CCCC=CCCCOC(=O)N3CC[C@@]4(C3)NC(=O)[C@H](CCCCNC(=O)CC[C@@H](C(=O)N[C@@H](C)C(N)=O)NC(=O)[C@H](Cc3csc5ccccc35)NC(=O)[C@H](CC3CCCCC3)NC4=O)NC(=O)[C@H](Cc3ccccc3)NC(=O)[C@H](C)NC(=O)C(C)(C)NC(=O)[C@H](Cc3cccc(C(=O)O)c3)NC(=O)[C@H](CC(=O)O)NC1=O)NC(=O)[C@H](CC(C)(C)C)NC(=O)[C@H](CC(=O)O)NC2=O` (relative stereo) [I-285, Ac-PL3-Asp-Npg-B5-Asp-3COOHF-Aib-Ala-Phe-Lys*3-PyrS2-ChA-BztA-GlnR*3-Ala-NH2], in that order: 5.00 to 5.52 and less than 50 nM.
Regarding `COc1ccccc1C[C@@H]1NC(=O)[C@]23CCN(C2)C(=O)OCCCC=CCCCC2(CCCC=CC[C@]4(CCCN4C(C)=O)C(=O)N[C@@H](CC(=O)O)C(=O)N[C@@H](CC(C)(C)C)C(=O)N2)C(=O)N[C@@H](CC(=O)O)C(=O)N[C@@H](Cc2cccc(C(=O)O)c2)C(=O)NC(C)(C)C(=O)N[C@@H](C)C(=O)N[C@@H](Cc2ccccc2)C(=O)N[C@@H](CCCCNC(=O)CC[C@@H](C(=O)N[C@@H](C)C(N)=O)NC(=O)[C@H](Cc2csc4ccccc24)NC1=O)C(=O)N3` (relative stereo) [I-293, Ac-PL3-Asp-Npg-B5-Asp-3COOHF-Aib-Ala-Phe-Lys*3-PyrS2-20MeF-BztA-GlnR*3-Ala-NH2], the negative logarithm of the IC50 (pIC50) against beta-catenin/TCF4 is 5.52 to 5.82. Besides, the half-inhibitory concentration (IC50) on beta-catenin is less than 50 nM.
For `CC(=O)N1CCC[C@]12CC=CCCCC1(CCCC=CCCCOC(=O)N3CC[C@@]4(C3)NC(=O)[C@H](CCCCNC(=O)CC[C@@H](C(=O)N[C@@H](C)C(N)=O)NC(=O)[C@H](Cc3csc5ccccc35)NC(=O)[C@H](Cc3ccncc3)NC4=O)NC(=O)[C@H](Cc3ccccc3)NC(=O)[C@H](C)NC(=O)C(C)(C)NC(=O)[C@H](Cc3cccc(C(=O)O)c3)NC(=O)[C@H](CC(=O)O)NC1=O)NC(=O)[C@H](CC(C)(C)C)NC(=O)[C@H](CC(=O)O)NC2=O` (relative stereo) [I-301, Ac-PL3-Asp-Npg-B5-Asp-3COOHF-Aib-Ala-Phe-Lys*3-PyrS2-4PyrA-BztA-GlnR*3-Ala-NH2], in that order: less than 5.00 and less than 50 nM.
For `CC(=O)N1CCC[C@]12CC=CCCCC1(CCCC=CCCCOC(=O)N3CC[C@@]4(C3)NC(=O)[C@H](CCCCNC(=O)CC[C@@H](C(=O)N[C@@H](CCCCNC(=O)CCOCCOCCOCCOCCOCCOCCOCCOCCNC(=O)CCCC[C@@H]3SC[C@@H]5NC(=O)N[C@@H]53)C(N)=O)NC(=O)[C@H](Cc3csc5ccccc35)NC(=O)[C@H](Cc3ccccc3C(F)(F)F)NC4=O)NC(=O)[C@H](Cc3ccccc3)NC(=O)[C@H](C)NC(=O)C(C)(C)NC(=O)[C@H](Cc3cccc(C(=O)O)c3)NC(=O)[C@H](CC(=O)O)NC1=O)NC(=O)[C@H](CC(C)(C)C)NC(=O)[C@H](CC(=O)O)NC2=O` (relative stereo) [I-303, Ac-PL3-Asp-Npg-B5-Asp-3COOHF-Aib-Ala-Phe-Lys*3-PyrS2-2F3MeF-BztA-GlnR*3-[BiotinPEG8]Lys-NH2], in that order: less than 5.00 and less than 50 nM.
On the same counts, the results for `CC(=O)N1CCC[C@]12CC=CCCCC1(CCCC=CCCCOC(=O)N3CC[C@@]4(C3)NC(=O)[C@H](CCCCNC(=O)CC[C@@H](C(=O)N[C@@H](C)C(N)=O)NC(=O)[C@H](Cc3csc5ccccc35)NC(=O)[C@H](Cc3ccsc3)NC4=O)NC(=O)[C@H](Cc3ccccc3)NC(=O)[C@H](C)NC(=O)C(C)(C)NC(=O)[C@H](Cn3cc(CC(C)(C)C(=O)O)nn3)NC(=O)[C@H](CC(=O)O)NC1=O)NC(=O)[C@H](CC(C)(C)C)NC(=O)[C@H](CC(N)=O)NC2=O` (relative stereo) [I-315, Ac-PL3-Asn-Npg-B5-Asp-[CH2CMe2CO2H]TriAzDap-Aib-Ala-Phe-Lys*3-PyrS2-3Thi-BztA-GlnR*3-Ala-NH2] are 5.00 to 5.52 and less than 50 nM.
At beta-catenin/TCF4, `CC(=O)N1CCC[C@]12CC=CCCCC1(CCCC=CCCCOC(=O)N3CC[C@@]4(C3)NC(=O)[C@H](CCCCNC(=O)CC[C@@H](C(=O)N[C@@H](C)C(N)=O)NC(=O)[C@H](Cc3csc5ccccc35)NC(=O)[C@H](Cc3ccsc3)NC4=O)NC(=O)[C@H](Cc3ccccc3)NC(=O)[C@H](C)NC(=O)C(C)(C)NC(=O)[C@H](Cn3cc(CC(C)(C)C(=O)O)nn3)NC(=O)[C@H](CC(=O)O)NC1=O)NC(=O)[C@H](CC(C)(C)C)NC(=O)[C@H](CO)NC2=O` (relative stereo) [I-316, Ac-PL3-Ser-Npg-B5-Asp-[CH2CMe2CO2H]TriAzDap-Aib-Ala-Phe-Lys*3-PyrS2-3Thi-BztA-GlnR*3-Ala-NH2] had a negative-log IC50 (pIC50) of less than 5.00. Also, the IC50 on beta-catenin lay within 50 to 200 nM.
Turning to `CC(=O)N1CCC[C@]12CC=CCCCC1(CCCC=CCCCOC(=O)N3CC[C@@]4(C3)NC(=O)[C@H](CCCCNC(=O)CC[C@@H](C(=O)N[C@@H](C)C(N)=O)NC(=O)[C@H](Cc3csc5ccccc35)NC(=O)[C@H](Cc3ccsc3)NC4=O)NC(=O)[C@H](Cc3ccccc3)NC(=O)[C@H](C)NC(=O)C(C)(C)NC(=O)[C@H](Cn3cc(CC(C)(C)C(=O)O)nn3)NC(=O)[C@H](CC(N)=O)NC1=O)NC(=O)[C@H](CC(C)(C)C)NC(=O)[C@H](CC(=O)O)NC2=O` (relative stereo) [I-318, Ac-PL3-Asp-Npg-B5-Asn-[CH2CMe2CO2H]TriAzDap-Aib-Ala-Phe-Lys*3-PyrS2-3Thi-BztA-GlnR*3-Ala-NH2], at beta-catenin/TCF4, the pIC50 is 5.00 to 5.52. This compound had a half-inhibitory concentration (IC50) on beta-catenin of less than 50 nM.
On the same counts, the results for `CC(=O)N1CCC[C@]12CC=CCCCC1(CCCC=CCCCOC(=O)N3CC[C@@]4(C3)NC(=O)[C@H](CCCCNC(=O)CC[C@@H](C(=O)N[C@@H](C)C(N)=O)NC(=O)[C@H](Cc3csc5ccccc35)NC(=O)[C@H](Cc3ccsc3)NC4=O)NC(=O)[C@H](Cc3ccccc3)NC(=O)[C@H](C)NC(=O)[C@H](CCC(=O)N3CCOCC3)NC(=O)[C@H](Cn3cc(CC(C)(C)C(=O)O)nn3)NC(=O)[C@H](CC(=O)O)NC1=O)NC(=O)[C@H](CC(C)(C)C)NC(=O)[C@H](CC(N)=O)NC2=O` (relative stereo) [I-319, Ac-PL3-Asn-Npg-B5-Asp-[CH2CMe2CO2H]TriAzDap-MorphGln-Ala-Phe-Lys*3-PyrS2-3Thi-BztA-GlnR*3-Ala-NH2] are less than 5.00 and less than 50 nM.
On the same counts, the results for `CC(=O)N1CCC[C@]12CC=CCCCC1(CCCC=CCCCOC(=O)N3CC[C@@]4(C3)NC(=O)[C@H](CCCCNC(=O)CC[C@@H](C(=O)N[C@@H](C)C(N)=O)NC(=O)[C@H](Cc3csc5ccccc35)NC(=O)[C@H](Cc3ccsc3)NC4=O)NC(=O)[C@H](Cc3ccccc3)NC(=O)[C@H](C)NC(=O)[C@H](CCC(=O)N3CCOCC3)NC(=O)[C@H](Cn3cc(CC(C)(C)C(=O)O)nn3)NC(=O)[C@H](CC(=O)O)NC1=O)NC(=O)[C@H](CC(C)(C)C)NC(=O)[C@H](CO)NC2=O` (relative stereo) [I-320, Ac-PL3-Ser-Npg-B5-Asp-[CH2CMe2CO2H]TriAzDap-MorphGln-Ala-Phe-Lys*3-PyrS2-3Thi-BztA-GlnR*3-Ala-NH2] are less than 5.00 and 50 to 200 nM.
Turning to `CC(=O)N1CCC[C@]12CC=CCCCC1(CCCC=CCCCOC(=O)N3CC[C@@]4(C3)NC(=O)[C@H](CCCCNC(=O)CC[C@@H](C(=O)N[C@@H](C)C(N)=O)NC(=O)[C@H](Cc3csc5ccccc35)NC(=O)[C@H](Cc3ccsc3)NC4=O)NC(=O)[C@H](Cc3ccccc3)NC(=O)[C@H](C)NC(=O)[C@H](CCC(=O)N3CCOCC3)NC(=O)[C@H](Cn3cc(CC(C)(C)C(=O)O)nn3)NC(=O)[C@H](CC(N)=O)NC1=O)NC(=O)[C@H](CC(C)(C)C)NC(=O)[C@H](CC(=O)O)NC2=O` (relative stereo) [I-322, Ac-PL3-Asp-Npg-B5-Asn-[CH2CMe2CO2H]TriAzDap-MorphGln-Ala-Phe-Lys*3-PyrS2-3Thi-BztA-GlnR*3-Ala-NH2], the negative-log IC50 (pIC50) at beta-catenin/TCF4 is 5.00 to 5.52. The IC50 on beta-catenin is less than 50 nM.

In general, pIC50 refers to the negative decadic logarithm of the IC50, by convention in mol/L. A low value points to a large IC50. As usually defined, the IC50 is the concentration that gives 50% inhibition.
